The values below come from ChEMBL document CHEMBL5108017.

Protein sequences, listed by entry. Tags and fused reporters are not part of them.
UniProt Q60492, whole entry, looked up: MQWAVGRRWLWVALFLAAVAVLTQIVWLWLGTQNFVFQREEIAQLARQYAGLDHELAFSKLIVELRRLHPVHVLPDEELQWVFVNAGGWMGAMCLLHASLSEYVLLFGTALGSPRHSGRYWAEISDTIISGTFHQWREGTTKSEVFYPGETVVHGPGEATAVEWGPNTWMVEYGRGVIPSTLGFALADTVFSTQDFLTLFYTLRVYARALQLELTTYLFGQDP
UniProt P35372, whole entry, looked up: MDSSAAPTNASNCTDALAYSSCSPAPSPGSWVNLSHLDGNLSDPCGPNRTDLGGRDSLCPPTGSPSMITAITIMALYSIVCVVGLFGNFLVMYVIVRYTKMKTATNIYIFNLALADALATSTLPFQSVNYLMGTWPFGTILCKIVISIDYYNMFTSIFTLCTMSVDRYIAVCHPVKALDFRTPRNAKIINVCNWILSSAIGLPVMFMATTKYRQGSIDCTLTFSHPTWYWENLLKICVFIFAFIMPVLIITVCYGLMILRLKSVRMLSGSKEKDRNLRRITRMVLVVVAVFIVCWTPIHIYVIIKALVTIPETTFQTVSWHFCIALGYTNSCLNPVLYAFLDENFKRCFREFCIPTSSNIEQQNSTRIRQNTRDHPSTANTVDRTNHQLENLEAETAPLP

In test [1] the target is Sigma non-opioid intracellular receptor 1 (Cavia porcellus, UniProt Q60492).
Test [2] concerns the target Mu-type opioid receptor (Homo sapiens, UniProt P35372). Conditions: cho-k1.

For orientation: Ki means a dissociation constant, usually derived from enzyme kinetics or from competition with a known ligand. `O=C1COC2(CCN(CCc3ccccc3)CC2)CN1c1ccccc1` displayed a Ki in test [1] of 57 nM. As to `C[C@@H]1[C@@H]2Cc3ccc(O)cc3[C@@]1(C)CCN2CCc1ccccc1`, in test [2], the Ki was 3.9 nM. In other words, the single-digit nanomolar range.
